These are literature values, as cited in patent US7115571B1, “Retro-inverso peptides derived from interleukin-3” (Myelos Corporation, priority 2000, dated 2006).

For the data set the following is noted: intravenously injected.

B1: IL-3: native cytokine; glycoprotein acting on hematopoietic target cells (protein, UniProt P08700 20-152, looked up)
Interleukin-3: APMTQTTPLKTSWVNCSNMIDEIITHLKQPPLPLLDFNNLNGEDQDILMENNLRRPNLEAFNRAVKSLQNASAIESILKNLLPCLPLATAAPTRHPIHIKDGDWNEFRRKLTFYLKTLENAQAQQTTLSLAIF
In general, half-life refers to the time in which the quantity being followed falls by half. For the molecule B1, the half-life is around 40 min.
